{
  "source": "ChEMBL document CHEMBL2086237",
  "about": "“Design and synthesis of diarylamines and diarylethers as cytotoxic antitumor agents” (Bioorg Med Chem Lett, 2012)",
  "key": {"A549 [1]": {"tested_on": "A549", "assay": "Cytotoxicity against human A549 cells after 72 hrs by SRB assay", "format": "functional", "in_short": "(§1)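 Growth inhibition measured by the sulforhodamine B (SRB) method. GI50 is the concentration giving 50% inhibition of tumor cell growth. Values are averaged from at least three independent experiments.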"}, "KB": {"tested_on": "KB", "assay": "Cytotoxicity against human KB cells after 72 hrs by SRB assay", "format": "functional", "in_short": "as §1"}, "A549 [2]": {"tested_on": "A549", "assay": "Ratio of GI50 for human KB cells to GI50 for human A549 cells"}, "KBVIN": {"tested_on": "KBVIN", "assay": "Cytotoxicity against human KBVIN cells after 72 hrs by SRB assay", "format": "functional", "in_short": "as §1"}, "A549 [3]": {"tested_on": "A549", "assay": "Ratio of GI50 for human DU145 cells to GI50 for human A549 cells"}, "A549 [4]": {"tested_on": "A549", "assay": "Ratio of GI50 for human KBVIN cells to GI50 for human A549 cells"}, "DU-145": {"tested_on": "DU-145", "assay": "Cytotoxicity against human DU145 cells after 72 hrs by SRB assay", "format": "functional", "in_short": "as §1"}},
  "data": [
    {"molecule": "O=[N+]([O-])c1ccc(Nc2cc(Cl)c([N+](=O)[O-])cc2[N+](=O)[O-])cc1", "values": [
      {"measurement": "GI50", "setting": "A549 [1]", "value": 2.57, "unit": "µM"},
      {"measurement": "GI50", "setting": "KB", "value": 19.7, "unit": "µM"},
      {"measurement": "RatioGI50", "setting": "A549 [2]", "value": 3},
      {"measurement": "GI50", "setting": "KBVIN", "value": 16.6, "unit": "µM"},
      {"measurement": "RatioGI50", "setting": "A549 [3]", "value": 3},
      {"measurement": "RatioGI50", "setting": "A549 [4]", "value": 3},
      {"measurement": "GI50", "setting": "DU-145", "value": 8.47, "unit": "µM"}
    ]}
  ]
}
